# Results published in PubChem BioAssay (EPA / NIEHS).
# Protein sequences, listed by entry. Tags and fused reporters are not part of them. Lines headed by an entry give the natural chain unless they say otherwise; changes in a name come on top.
# UniProt P13500, whole entry, looked up: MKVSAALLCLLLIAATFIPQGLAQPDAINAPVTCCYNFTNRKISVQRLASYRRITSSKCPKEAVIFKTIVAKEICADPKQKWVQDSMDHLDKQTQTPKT
# UniProt P16581: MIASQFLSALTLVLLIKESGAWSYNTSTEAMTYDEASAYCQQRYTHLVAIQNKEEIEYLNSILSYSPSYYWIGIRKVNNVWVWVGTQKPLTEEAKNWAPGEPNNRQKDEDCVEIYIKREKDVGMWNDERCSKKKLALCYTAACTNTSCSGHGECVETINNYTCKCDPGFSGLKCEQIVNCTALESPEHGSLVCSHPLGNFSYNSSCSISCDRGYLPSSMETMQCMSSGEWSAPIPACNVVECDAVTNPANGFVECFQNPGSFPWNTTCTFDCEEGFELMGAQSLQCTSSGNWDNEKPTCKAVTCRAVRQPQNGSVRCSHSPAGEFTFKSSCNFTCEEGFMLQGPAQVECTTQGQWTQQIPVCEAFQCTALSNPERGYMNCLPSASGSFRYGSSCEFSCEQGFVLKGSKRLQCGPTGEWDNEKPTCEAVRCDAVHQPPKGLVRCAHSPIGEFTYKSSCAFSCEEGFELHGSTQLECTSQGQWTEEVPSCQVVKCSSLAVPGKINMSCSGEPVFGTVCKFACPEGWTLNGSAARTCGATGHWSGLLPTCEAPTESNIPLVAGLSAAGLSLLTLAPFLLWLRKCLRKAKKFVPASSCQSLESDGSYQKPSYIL
# Several values for one entry are separate records, joined by “and”; a condition that tells them apart may be missing. Identical values can stand only once. The list shows a part of the results, in another mix than the full data. The source holds several records for some structures; these can differ, active in one and inactive in another. Activity calls are given as the source filed them. Rule for the calls: active = hit-call score of the fitted dose curve at least 0.9, where 1 is the maximum; inactive = score below 0.9.
# How the values were obtained:
# [1] = BSK_hDFCGF_Proliferation: Cell Proliferation Assessment in the BioMAP Diversity Plus: hDFCGF Assay (AID 2283059); conditions: primary human foreskin fibroblasts;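 note: curves fitted for both rise and fall of signal versus DMSO baseline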
# How it was run: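 Sub-confluent human foreskin fibroblast cultures receive test chemical […]. Relative cell number is quantified by sulforhodamine B staining (0.1%, after 10% TCA fixation) at 560 nm, with bidirectional fitting referenced to DMSO.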
# [2] = read-out: Macrophage colony-stimulating factor (MCSF), CSF1 (gene 1435); assay: BSK_hDFCGF_MCSF: BioMAP Diversity Plus: hDFCGF Assay for Macrophage colony-stimulating factor (MCSF) Biomarker Activity (AID 2283060); conditions: actives raise or lower the signal; primary human foreskin fibroblasts
# How it was run: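 M-CSF levels, determined by ELISA, are taken at 24 h after dosing human skin fibroblasts. Responses in either direction are fitted with DMSO serving as the baseline.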
# [3] = BSK_hDFCGF_SRB: Viability Assessment in the BioMAP Diversity Plus: hDFCGF Assay (AID 2283061); conditions: primary human foreskin fibroblasts;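 note: cells exposed to compound for 24 h before the read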
# How it was run: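 Cells were dosed with test chemical, cultured 24 h, fixed with 10% TCA, then stained with 0.1% SRB and read at 560 nm. The fibroblasts were human foreskin primary cells, and DMSO served as baseline.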
# [4] = read-out: TIMP metallopeptidase inhibitor 1 (TIMP1), TIMP1 (gene 7076); assay: BSK_hDFCGF_TIMP1: BioMAP Diversity Plus: hDFCGF Assay for TIMP metallopeptidase inhibitor 1 (TIMP1) Biomarker Activity (AID 2283062); conditions: actives raise or lower the signal; primary human foreskin fibroblasts
# How it was run: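 Fibroblasts from human foreskin are treated with test chemical and harvested at 24 h. TIMP-1 is quantified by ELISA, and gain or loss of signal is scored against DMSO.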
# [5] = read-out: Monokine induced gamma interferon (MIG), CXCL9 (gene 4283); assay: BSK_hDFCGF_MIG: BioMAP Diversity Plus: hDFCGF Assay for Monokine induced gamma interferon (MIG) Biomarker Activity (AID 2283063); conditions: actives raise or lower the signal; primary human foreskin fibroblasts
# How it was run: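 MIG signal, determined by ELISA, reflects 24 h chemical exposure of human skin primary fibroblasts. DMSO serves as negative control and baseline.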
# [6] = read-out: Matrix Metallopeptidase 1 (MMP1), MMP1 (gene 4312); assay: BSK_hDFCGF_MMP1: BioMAP Diversity Plus: hDFCGF Assay for Matrix Metallopeptidase 1 (MMP1) Biomarker Activity (AID 2283064); conditions: actives raise or lower the signal; primary human foreskin fibroblasts
# How it was run: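 hDFCGF primary fibroblasts (human foreskin); chemical added; 24 h; MMP1 by ELISA; bidirectional fit vs DMSO.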
# [7] = read-out: Vascular cell adhesion molecule 1 (VCAM1), VCAM1 (gene 7412); assay: BSK_hDFCGF_VCAM1: BioMAP Diversity Plus: hDFCGF Assay for Vascular cell adhesion molecule 1 (VCAM1) Biomarker Activity (AID 2283065); conditions: actives raise or lower the signal; primary human foreskin fibroblasts;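 for AC50: VCAM-1 protein level quantified by ELISA after 24 h chemical exposure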
# How it was run: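 Cells are dosed, cultured for 24 h, then VCAM-1 is quantified by ELISA; signal increases and decreases are both fitted relative to DMSO.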
# [8] = read-out: Plasminogen activator inhibitor-1 (PAI1), SERPINE1 (gene 5054); assay: BSK_hDFCGF_PAI1: BioMAP Diversity Plus: hDFCGF Assay for Plasminogen activator inhibitor-1 (PAI1) Biomarker Activity (AID 2283066); conditions: actives raise or lower the signal; primary human foreskin fibroblasts
# How it was run: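 Human foreskin fibroblasts in the hDFCGF system were dosed with compound for 24 h; PAI-1 was quantified by ELISA. Bidirectional curve fitting used DMSO as negative control and baseline.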
# [9] = read-out: Intercellular Adhesion Molecule 1 (ICAM1), ICAM1 (gene 3383); assay: BSK_KF3CT_ICAM1: BioMAP Diversity Plus: KF3CT Assay for Intercellular Adhesion Molecule 1 (ICAM1) Biomarker Activity (AID 2283067); conditions: actives raise or lower the signal; primary human keratinocytes with fibroblasts
# How it was run: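 Dose the keratinocyte/fibroblast co-culture, wait 24 h, measure ICAM-1 by ELISA, then fit increases or decreases against DMSO. Cytotoxicity is checked in parallel cultures by SRB total-protein staining.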
# [10] = read-out: Interferon-gamma inducible Protein 10 (IP10), CXCL10 (gene 3627); assay: BSK_KF3CT_IP10: BioMAP Diversity Plus: KF3CT Assay for Interferon-gamma inducible Protein 10 (IP10) Biomarker Activity (AID 2283068); conditions: actives raise or lower the signal; primary human keratinocytes with fibroblasts
# How it was run: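 ELISA read-out of IP-10 after 24 h chemical dosing of human skin primary co-culture (keratinocytes, foreskin fibroblasts). Gain or loss of signal relative to DMSO, bidirectional curve fit.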
# [11] = BSK_KF3CT_SRB: Viability Assessment in the BioMAP Diversity Plus: KF3CT Assay (AID 2283069); conditions: primary human keratinocytes with fibroblasts;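 note: total protein by sulforhodamine B staining as a cytotoxicity measure; fitted for both signal gain and loss against DMSO baseline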
# How it was run: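 Keratinocytes co-cultured with foreskin fibroblasts (human primary); chemical added, 24 h; fix 10% TCA, stain 0.1% SRB, A560. Bidirectional fit vs DMSO.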
# [12] = read-out: Interleukin-1 alpha (IL1a), IL1A (gene 3552); assay: BSK_KF3CT_IL1a: BioMAP Diversity Plus: KF3CT Assay for Interleukin-1 alpha (IL1a) Biomarker Activity (AID 2283070); conditions: actives raise or lower the signal; primary human keratinocytes with fibroblasts
# How it was run: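 Chemicals were dosed onto co-cultured human keratinocytes and foreskin fibroblasts, IL-1a was quantified by ELISA at 24 h, and activity was fitted in both directions relative to DMSO controls.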
# [13] = read-out: TIMP metallopeptidase inhibitor 2 (TIMP2), TIMP2 (gene 7077); assay: BSK_KF3CT_TIMP2: BioMAP Diversity Plus: KF3CT Assay for TIMP metallopeptidase inhibitor 2 (TIMP2) Biomarker Activity (AID 2283071); conditions: actives raise or lower the signal; primary human keratinocytes with fibroblasts
# How it was run: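 Human primary keratinocyte/foreskin fibroblast co-culture dosed with chemical and sampled at 24 h. TIMP-2 levels quantified by ELISA; bidirectional fitting against DMSO negative control as baseline.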
# [14] = read-out: Transforming growth factor beta 1 (TGFb1), TGFB1 (gene 7040); assay: BSK_KF3CT_TGFb1: BioMAP Diversity Plus: KF3CT Assay for Transforming growth factor beta 1 (TGFb1) Biomarker Activity (AID 2283072); conditions: actives raise or lower the signal; primary human keratinocytes with fibroblasts
# How it was run: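 Human keratinocyte plus foreskin fibroblast primary co-culture, dosed with chemical for 24 h. TGF-b1 quantified by ELISA. Activity fitted bidirectionally against DMSO negative control as baseline.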
# [15] = read-out: C-C motif chemokine 2 (Homo sapiens) (UniProt P13500); assay: BSK_KF3CT_MCP1: BioMAP Diversity Plus: KF3CT Assay for Monocyte Chemoattractant Protein 1 (MCP1/CCL2) Biomarker Activity (AID 2283073); conditions: actives raise or lower the signal; primary human keratinocytes with fibroblasts
# How it was run: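 Keratinocytes and foreskin fibroblasts were co-cultured, dosed with chemical, and sampled 24 h later. MCP-1 was quantified by ELISA, and the endpoint was analyzed with bidirectional fitting using DMSO as negative control.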
# [16] = read-out: Matrix Metallopeptidase 9 (MMP9), MMP9 (gene 4318); assay: BSK_KF3CT_MMP9: BioMAP Diversity Plus: KF3CT Assay for Matrix Metallopeptidase 9 (MMP9) Biomarker Activity (AID 2283074); conditions: actives raise or lower the signal; primary human keratinocytes with fibroblasts;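 for AC50: MMP9 protein level quantified by ELISA in the co-culture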
# How it was run: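 Human keratinocyte/foreskin fibroblast co-culture; compound added; 24 h; MMP-9 by ELISA; bidirectional fit vs DMSO baseline.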
# [17] = read-out: urokinase plasminogen activator (uPA), PLAU (gene 5328); assay: BSK_KF3CT_uPA: BioMAP Diversity Plus: KF3CT Assay for urokinase plasminogen activator (uPA) Biomarker Activity (AID 2283075); conditions: actives raise or lower the signal; primary human keratinocytes with fibroblasts
# How it was run: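 ELISA readout of uPA, analyzed for signal gain or loss relative to DMSO, from a human primary keratinocyte–foreskin fibroblast co-culture measured 24 h after chemical treatment.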
# [18] = read-out: CD40, CD40 (gene 958); assay: BSK_LPS_CD40: BioMAP Diversity Plus: LPS Assay for CD40 Biomarker Activity (AID 2283076); conditions: actives raise or lower the signal; primary human HUVEC with PBMC
# How it was run: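 CD40 signal, measured by ELISA, is fitted in both directions relative to DMSO vehicle. The system is an LPS-driven human vascular primary co-culture of endothelial cells and PBMC, sampled 24 h after compound addition.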
# [19] = read-out: E-selectin (Homo sapiens) (UniProt P16581); assay: BSK_LPS_Eselectin: BioMAP Diversity Plus: LPS Assay for Eselectin Biomarker Activity (AID 2283077); conditions: actives raise or lower the signal; primary human HUVEC with PBMC
# How it was run: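 Signal of E-selectin, detected by ELISA, served as the endpoint; cells were umbilical vein endothelium with PBMC, read 24 h after treatment. DMSO defined baseline, and both increases and decreases were fitted.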
# [20] = read-out: Interleukin-8 (IL8), CXCL8 (gene 3576); assay: BSK_LPS_IL8: BioMAP Diversity Plus: LPS Assay for Interleukin-8 (IL8) Biomarker Activity (AID 2283078); conditions: actives raise or lower the signal; primary human HUVEC with PBMC
# How it was run: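 Endothelial cells and PBMC from human donors are co-cultured, treated with chemicals and LPS, then assayed for IL-8 by ELISA after 24 h. Parallel SRB staining (0.1% SRB after 10% TCA fixation, 560 nm) flags cytotoxicity.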
structure (smiles),measurement,setting,value
CN(C(=O)Cc1cccc2occc12)[C@H]1CC[C@@]2(CCCO2)C[C@@H]1N1CCCC1,outcome,[1],inactive
same,outcome,[2],inactive
same,outcome,[3],inactive
same,outcome,[4],inactive
same,outcome,[5],inactive
same,outcome,[6],inactive
same,outcome,[7],inactive
same,outcome,[8],inactive
same,outcome,[9],inactive
same,outcome,[10],inactive
same,outcome,[11],inactive
same,outcome,[12],inactive
same,outcome,[13],inactive
same,outcome,[14],inactive
same,outcome,[15],inactive
same,outcome,[16],inactive
same,outcome,[17],inactive
same,outcome,[18],inactive
same,outcome,[19],inactive
same,outcome,[20],inactive
O=C1C2CC=CCC2C(=O)N1SC(Cl)(Cl)C(Cl)Cl (stereo not given),AC50,[1],active: 0.933 µM
same,AC50,[2],active: 0.597 µM
same,AC50,[3],active: 148 nM
same,outcome,[4],inactive
same,AC50,[5],active: 1.72 µM
same,AC50,[7],active: 1.03 µM
same,AC50,[8],active: 1.3 µM
same,AC50,[10],active: 1.88 µM
same,AC50,[11],active: 1.64 µM
same,AC50,[12],active: 3.96 µM
same,AC50,[13],active: 2 µM
same,AC50,[14],active: 3.27 µM
same,AC50,[15],active: 3.31 µM
same,AC50,[16],active: 2.15 µM
same,AC50,[17],active: 3.72 µM
same,AC50,[18],active: 13.3 µM
same,AC50,[20],active: 11 µM
O=[N+]([O-])c1ccc([N+](=O)[O-])cc1,outcome,[2],inactive
same,outcome,[3],inactive
same,outcome,[4],inactive
same,outcome,[5],inactive
same,outcome,[6],inactive
same,outcome,[7],inactive
same,outcome,[8],inactive
same,outcome,[9],inactive
same,outcome,[10],inactive
same,outcome,[11],inactive
same,outcome,[12],inactive
same,outcome,[13],inactive
same,outcome,[14],inactive
same,outcome,[15],inactive
same,outcome,[16],inactive
same,outcome,[17],inactive
same,AC50,[18],active: 4.42 µM
same,outcome,[19],inactive
same,AC50,[20],active: 7.02 µM
O=C(Cl)Oc1ccccc1,outcome,[1],inactive
same,outcome,[2],inactive
same,outcome,[3],inactive
same,outcome,[4],inactive
same,outcome,[5],inactive
same,outcome,[6],inactive
same,outcome,[7],inactive
same,outcome,[8],inactive
same,outcome,[9],inactive
same,outcome,[10],inactive
same,outcome,[11],inactive
same,outcome,[12],inactive
same,outcome,[13],inactive
same,outcome,[14],inactive
same,outcome,[15],inactive
same,outcome,[16],inactive
same,outcome,[17],inactive
same,outcome,[18],inactive
same,outcome,[19],inactive
same,outcome,[20],inactive
CC(C)OP(=S)(OC(C)C)SCCNS(=O)(=O)c1ccccc1,AC50,[3],active: 28.4 µM and active: 20.2 µM and active: 27.1 µM
same,AC50,[5],active: 33.2 µM
same,outcome,[5],inactive
same,AC50,[6],active: 36.8 µM and active: 36.2 µM
same,outcome,[6],inactive
same,AC50,[8],active: 33.2 µM and active: 36.2 µM
same,outcome,[8],inactive
same,outcome,[9],inactive
same,AC50,[10],active: 30.8 µM
same,outcome,[10],inactive
same,AC50,[11],active: 14.9 µM and active: 21.3 µM and active: 14.1 µM
same,outcome,[12],inactive
same,outcome,[13],inactive
same,outcome,[14],inactive
same,AC50,[15],active: 14.4 µM and active: 12.1 µM
same,outcome,[15],inactive
same,outcome,[17],inactive
same,AC50,[18],active: 30.1 µM and active: 32.2 µM and active: 31.2 µM
same,AC50,[20],active: 30.3 µM and active: 29.4 µM and active: 32.9 µM
Cc1cc([N+](=O)[O-])cc([N+](=O)[O-])c1O,AC50,[1],active: 20 µM
same,AC50,[2],active: 20 µM
same,outcome,[3],inactive
same,outcome,[4],inactive
same,AC50,[5],active: 20 µM
same,outcome,[6],inactive
same,AC50,[7],active: 4.77 µM
same,outcome,[8],inactive
same,outcome,[9],inactive
same,outcome,[10],inactive
same,outcome,[11],inactive
same,outcome,[12],inactive
same,outcome,[13],inactive
same,outcome,[14],inactive
same,outcome,[15],inactive
same,outcome,[16],inactive
same,outcome,[17],inactive
same,outcome,[18],inactive
same,outcome,[19],inactive
same,AC50,[20],active: 10.1 µM
